Measured values from patent publication US10442819B2, “Tricyclic compounds as inhibitors of mutant IDH enzymes” (Merck Sharp & Dohme Corp., priority 2014, dated 2019).

Chains of the proteins cited; added tags and fusions are not shown.
UniProt O75874, whole entry R132H: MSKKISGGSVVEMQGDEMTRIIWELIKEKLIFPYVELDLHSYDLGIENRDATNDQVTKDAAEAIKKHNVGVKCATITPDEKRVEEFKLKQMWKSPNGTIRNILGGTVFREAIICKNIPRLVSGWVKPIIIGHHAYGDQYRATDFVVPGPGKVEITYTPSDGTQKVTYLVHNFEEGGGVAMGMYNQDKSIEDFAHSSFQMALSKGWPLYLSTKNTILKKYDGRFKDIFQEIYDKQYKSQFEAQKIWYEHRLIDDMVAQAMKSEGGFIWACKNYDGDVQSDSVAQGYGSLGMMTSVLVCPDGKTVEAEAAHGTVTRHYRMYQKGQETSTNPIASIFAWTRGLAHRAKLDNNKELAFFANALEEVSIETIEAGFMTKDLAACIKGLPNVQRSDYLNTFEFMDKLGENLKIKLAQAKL

Target: R132H mutant IDH1 enzyme (Homo sapiens (Human), UniProt O75874, R132H)
Assay: R132H IDH1 Enzymatic Assay
Type: biochemical
Settings: R132H mutant IDH1 enzyme 1.5 nM final; luminescence readout; read-out: IC50

Structure (SMILES) | IC50
CO[C@H](C1CC1)[C@H]1CC[C@H](C(=O)N2Cc3cccnc3Nc3ccc(N4CCOCC4)cc32)CC1 [Example 169, 6-({Trans-4-[(R)-cyclopropyl(methoxy)methyl]cyclohexyl}carbonyl)-8-morpholin-4-yl-6,11-dihydro-5H-pyrido[2,3-b][1,5]benzodiazepine] | 51 nM
CO[C@H]1C[C@H]2CC[C@@H](C1)N2c1ccc2c(c1)N(C(=O)[C@H]1CC[C@H](OC(C)C)CO1)Cc1cccnc1N2 [Example 161, ((2R,5S)-5-isopropoxytetrahydro-2H-pyran-2-yl)(8-((1R,3R,5S)-3-methoxy-8-azabicyclo[3.2.1]octan-8-yl)-5,11-dihydro-6H-benzo[b]pyrido[2,3-e][1,4]diazepin-6-yl)methanone] | 18 nM
[2H]C([2H])([2H])C([2H])(O[C@H]1CC[C@@H](C(=O)N2Cc3cccnc3Nc3ccc(N4CCOCC4)cc32)CC1)C([2H])([2H])[2H] [Example 126, [8-(morpholin-4-yl)-5,11-dihydro-6H-pyrido[2,3-b][1,5]benzodiazepin-6-yl]{cis-4-[(^2H7)propan-2-yloxy]cyclohexyl}metha-none] | 126 nM
COCC1CCCN(c2ccc3c(c2)N(C(=O)[C@H]2CC[C@H](OC)CC2)Cc2cccnc2N3)C1 (stereo partly drawn) [Example 228, 6-[(trans-4-methoxycyclohexyl)carbonyl]-8-[3-(methoxymethyl)piperidin-1-yl]-6,11-dihydro-5H-pyrido[2,3-b][1,5]benzodiazepine] | 618 nM
CO[C@H]1CC[C@H](C(=O)N2Cc3cccnc3Nc3ccc(-c4ccn(C5CCCCO5)n4)cc32)CC1 (stereo partly drawn) [Example 352, 6-[(trans-4-methoxycyclohexyl)carbonyl]-8-[1-(tetrahydro-2H-pyran-2-yl)-1H-pyrazol-3-yl]-6,11-dihydro-5H-pyrido[2,3-b][1,5]benzodiazepine] | 138 nM
CO[C@H]1CC[C@H](C(=O)N2Cc3cccnc3Nc3ccc(-c4cc(C(F)(F)F)nn4C)cc32)CC1 [Example 355, 6-[(trans-4-methoxycyclohexyl)carbonyl]-8-[1-methyl-3-(trifluoromethyl)-1H-pyrazol-5-yl]-6,11-dihydro-5H-pyrido[2,3-b][1,3]benzodiazepine] | 224 nM
CC(C)O[C@H]1CC[C@H](C(=O)N2Cc3cccnc3Nc3ccc(C4CCOC4)cc32)OC1 (single isomer, unassigned) [Example 16] | 19 nM
COC1CCC(C(=O)N2Cc3cccnc3Nc3ccc(N4CCC(C)(OC)CC4)cc32)CC1 (stereo not shown) [Example 201, 6-[(4-methoxycyclohexyl)carbonyl]-8-(4-methoxy-4-methylpiperidin-1-yl)-6,11-dihydro-5H-pyrido[2,3-b][1,5]benzodiazepine] | 283 nM
CO[C@H]1CC[C@H](C(=O)N2Cc3cccnc3Nc3ccc(-c4ccnn4C(C)C)cc32)CC1 [Example 367, 6-[(trans-4-methoxycyclohexyl)carbonyl]-8-[1-(1-methyethyl)-1H-pyrazol-5-yl]-6,11-dihydro-5H-pyrido[2,3-b][1,5]benzodiazepine] | 110 nM
O=C([C@H]1CC[C@H](NCC(F)(F)F)CC1)N1Cc2cccnc2Nc2ccc(N3CCOCC3)cc21 [Example 437, trans-4-[(8-morpholin-4-yl-5,11-dihydro-6H-pyrido[2,3-b][1,5]benzodiazepin-6-yl)carbonyl]-N-(2,2,2-trifluoroethyl)cyclohexanamine] | 534 nM
COC1CN(c2ccc3c(c2)N(C(=O)[C@H]2CC[C@H](OC)CC2)Cc2cccnc2N3)CC1F (stereo partly drawn) [Example 219, 8-(3-fluoro-4-methoxypyrrolidin-1-yl)-6-[(trans-4-methoxycyclohexyl)carbonyl]-6,11-dihydro-5H-pyrido[2,3-b][1,5]benzodiazepine] | 200 nM
COC1CCCC(C(=O)N2Cc3cccnc3Nc3ccc(N4CCOCC4)cc32)CC1 (stereo not shown) [Example 165, 6-[(4-methoxycycloheptyl)car-bonyl]-8-morpholin-4-yl-6,11-dihydro-5H-pyrido[2,3-b][1,5]benzodiazepine] | 954 nM
CC(C)O[C@H]1CC[C@H](C(=O)N2Cc3cccnc3Nc3ccc(N4CC5(CCCOC5)C4)cc32)OC1 [Example 42, (8-(6-oxa-2-azaspiro[3.5]nonan-2-yl)-5,11-dihydro-6H-benzo[b]pyrido[2,3-e][1,4]diazepin-6-yl)((2R,5S)-5-isopropoxytetrahydro-2H-pyran-2-yl)methanone] | 50 nM
O=C(C1CCN(CC(F)(F)F)CC1)N1Cc2cccnc2Nc2ccc(N3C[C@H]4CC[C@@H](C3)O4)cc21 [Example 304, 8-[(1R,5S)-8-oxa-3-azabicyclo[3.2.1]oct-3-yl]-6-{[1-(2,2,2-trifluoroethyl)piperidin-4-yl]carbonyl}-6,11-dihydro-5H-pyrido[2,3-b][1,5]benzodiazepine] | 13 nM
CO[C@H]1CC[C@H](C(=O)N2Cc3cccnc3Nc3ccc(N4CCC(F)(F)CC4)cc32)CC1 [Example 282, 8-(4,4-difluoropiperidin-1-yl)-6-[(trans-4-methoxycyclohexyl)carbonyl]-6,11-dihydro-5H-pyrido[2,3-b][1,5]benzodiazepine] | 211 nM
CO[C@H]1CC[C@H](C(=O)N2Cc3cccnc3Nc3ccc(C4=COCCO4)cc32)CC1 [Example 9, 8-(5,6-Dihydro-1,4-dioxin-2-yl)-6-[(trans-4-methoxycyclohexyl)carbonyl]-6,11-dihydro-5H-pyrido[2,3-b][1,5]benzodiazepine] | 206 nM
CC[C@H](N[C@H]1CC[C@H](C(=O)N2Cc3cccnc3Nc3ccc(N4CCOCC4)cc32)CC1)C(F)(F)F [Example 449, trans-4-[(8-morpholin-4-yl-5,11-dihydro-6H-pyrido[2,3-b][1,5]benzodiazepin-6-yl)carbonyl]-N-[(1S)-1-(trifluoromethyl)propyl]-cyclohexanamine] | 83 nM

Second part, the compound after the results:

IC50 | Structure (SMILES)
39 nM | CC[C@H](N(C)[C@H]1CC[C@H](C(=O)N2Cc3cccnc3Nc3ccc(N4CCOCC4)cc32)CC1)C(F)(F)F [Example 508, trans-N-methyl-4-[(8-morpholin-4-yl-5,11-dihydro-6H-pyrido[2,3-b][1,5]benzodiazepin-6-yl)carbonyl]-N-[(1S)-1-(trifluoromethyl)propyl]-cyclohexanamine]
21 nM | O=C(C1CCN(CC(F)F)CCO1)N1Cc2cccnc2Nc2ccc(N3CCOCC3)cc21 (stereo not shown) [Example 473, 6-{[4-(2,2-difluoroethyl)-1,4-oxazepan-7-yl]carbonyl}-8-morpholin-4-yl-6,11-dihydro-5H-pyrido[2,3-b][1,5]benzodiazepine]
34 nM | CC(C)O[C@H]1CC[C@H](C(=O)N2Cc3cccnc3Nc3ccc([C@@H]4CC[C@H](C)O4)cc32)OC1 (single isomer, unassigned) [Example 535]
145 nM | CCON=C1CCC(C(=O)N2Cc3cccnc3Nc3ccc(N4CCOCC4)cc32)CC1 (stereo not shown) [Example 550, 4-[(8-morpholin-4-yl-5,11-dihydro-6H-pyrido[2,3-b][1,5]benzodiazepin-6-yl)carbonyl]cyclohexanone O-ethyloxime]
870 nM | O=C([C@H]1CC[C@H](N2CC(F)(F)C2)CC1)N1Cc2cccnc2Nc2ccc(N3CCOCC3)cc21 [Example 460, 6-{[trans-4-(3,3-difluoroazetidin-1-yl)cyclohexyl]carbonyl}-8-morpholin-4-yl-6,11-dihydro-5H-pyrido[2,3-b][1,5]benzodiazepine]
55 nM | CC(C)O[C@H]1CC[C@H](C(=O)N2Cc3cccnc3Nc3ccc(C(F)(F)F)cc32)CC1 [Example 518, [Trans-4-(propan-2-yloxy)cyclohexyl][8-(trifluoromethyl)-5,11-dihydro-6H-pyrido[2,3-b][1,5]benzodiazepin-6-yl]methanone]
308 nM | CO[C@H]1CC[C@H](C(=O)N2Cc3cccnc3Nc3ccc(CN4CC(F)(F)C4)cc32)CC1 [Example 487, 8-[(3,3-difluoroazetidin-1-yl)methyl]-6-[(trans-4-methoxycyclohexyl)carbonyl]-6,11-dihydro-5H-pyrido[2,3-b][1,5]benzodiazepine]
918 nM | O=C([C@H]1CC[C@@H](N2CC(F)(F)C2)C1)N1Cc2cccnc2Nc2ccc(N3CCOCC3)cc21 (single isomer, unassigned) [Example 477]
43 nM | O=C([C@H]1CC[C@H](NC2(C(F)(F)F)CC2)CC1)N1Cc2cccnc2Nc2ccc(C3COCCO3)cc21 (stereo partly drawn) [Example 466, trans-4-({8-[-1,4-dioxan-2-yl]-5,11-dihydro-6H-pyrido[2,3-b][1,5]benzodiazepin-6-yl}carbonyl)-N-[1-(trifluoromethyl)cyclopropyl]-cyclohexanamine]
378 nM | CC(C)OC1CCC(C(=O)N2Cc3cccnc3Nc3ccc(CN4C[C@@H]5C[C@H]4CO5)cc32)CC1 (stereo partly drawn) [Example 488, 6-{[4-(1-methylethoxy)cyclohexyl]carbonyl}-8-[(1S,4S)-2-oxa-5-azabicyclo[2.2.1]hept-5-ylmethyl]-6,11-dihydro-5H-pyrido[2,3-b][1,5]benzodiazepine]
48 nM | C[C@H](N[C@H]1CC[C@H](C(=O)N2Cc3cccnc3Nc3ccc(C4CCOCC4)cc32)CC1)C(F)(F)F [Example 463, trans-4-{[8-(tetrahydro-2H-pyran-4-yl)-5,11-dihydro-6H-pyrido[2,3-b][1,5]benzodiazepin-6-yl]carbonyl}-N-[(1S)-2,2,2-trifluoro-1-methylethyl]cyclohexanamine]
128 nM | CC[C@@H](N[C@H]1CC[C@H](C(=O)N2Cc3cccnc3Nc3ccc(N4CCOCC4)cc32)CC1)C(F)(F)F [Example 451, trans-4-[(8-morpholin-4-yl-5,11-dihydro-6H-pyrido[2,3-b][1,5]benzodiazepin-6-yl)carbonyl]-N-[(1R)-1-(trifluoromethyl)propyl]-cyclohexanamine]
576 nM | O=C([C@H]1C[C@H](NC2(C(F)(F)F)CC2)C1)N1Cc2cccnc2Nc2ccc(N3CCOCC3)cc21 [Example 480, trans-3-[(8-morpholin-4-yl-5,11-dihydro-6H-pyrido[2,3-b][1,5]benzodiazepin-6-yl)carbonyl]-N-[1-(trifluoromethyl)cyclopropyl]-cyclobutanamine]
21 nM | CCOC(C)c1ccc2c(c1)N(C(=O)[C@H]1CC[C@H](OC(C)C)CC1)Cc1cccnc1N2 (stereo partly drawn) [Example 543, 8-(1-ethoxyethyl)-6-{[trans-4-(1-methylethoxy)cyclohexyl]carbonyl}-6,11-dihydro-5H-pyrido[2,3-b][1,5]benzodiazepine]
